Results: patent US20140315834A1 (Medicon Pharmaceuticals, Inc., priority 2012, published 2014)

By UniProt entry, the sequences of proteins in these tests, tags left out.
UniProt P05177, whole entry, looked up: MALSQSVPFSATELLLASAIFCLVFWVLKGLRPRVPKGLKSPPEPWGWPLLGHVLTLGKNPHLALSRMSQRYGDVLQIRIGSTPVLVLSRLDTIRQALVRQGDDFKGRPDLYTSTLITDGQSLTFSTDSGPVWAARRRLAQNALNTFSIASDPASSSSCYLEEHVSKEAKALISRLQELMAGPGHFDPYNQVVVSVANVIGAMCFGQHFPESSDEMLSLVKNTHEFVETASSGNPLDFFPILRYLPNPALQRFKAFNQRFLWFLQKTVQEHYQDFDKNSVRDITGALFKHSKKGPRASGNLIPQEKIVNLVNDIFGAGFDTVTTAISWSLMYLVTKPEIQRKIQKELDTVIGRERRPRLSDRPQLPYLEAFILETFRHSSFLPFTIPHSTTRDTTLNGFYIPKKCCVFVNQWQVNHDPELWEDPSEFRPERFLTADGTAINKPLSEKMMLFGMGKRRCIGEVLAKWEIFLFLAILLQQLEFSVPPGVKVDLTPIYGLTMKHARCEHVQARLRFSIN
UniProt P11712, whole entry, looked up: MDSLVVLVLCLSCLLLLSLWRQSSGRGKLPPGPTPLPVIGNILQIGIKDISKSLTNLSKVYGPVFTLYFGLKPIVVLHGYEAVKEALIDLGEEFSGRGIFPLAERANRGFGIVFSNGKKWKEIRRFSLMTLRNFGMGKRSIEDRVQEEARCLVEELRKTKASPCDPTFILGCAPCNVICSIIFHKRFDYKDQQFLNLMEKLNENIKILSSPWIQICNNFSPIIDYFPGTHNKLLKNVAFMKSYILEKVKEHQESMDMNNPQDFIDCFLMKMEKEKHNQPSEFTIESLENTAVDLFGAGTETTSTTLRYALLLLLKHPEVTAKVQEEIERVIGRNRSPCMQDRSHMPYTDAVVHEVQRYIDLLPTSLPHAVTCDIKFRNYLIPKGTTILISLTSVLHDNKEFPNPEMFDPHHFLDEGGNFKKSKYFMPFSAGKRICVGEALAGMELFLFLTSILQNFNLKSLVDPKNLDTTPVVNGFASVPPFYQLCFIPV
UniProt P08684, whole entry, looked up: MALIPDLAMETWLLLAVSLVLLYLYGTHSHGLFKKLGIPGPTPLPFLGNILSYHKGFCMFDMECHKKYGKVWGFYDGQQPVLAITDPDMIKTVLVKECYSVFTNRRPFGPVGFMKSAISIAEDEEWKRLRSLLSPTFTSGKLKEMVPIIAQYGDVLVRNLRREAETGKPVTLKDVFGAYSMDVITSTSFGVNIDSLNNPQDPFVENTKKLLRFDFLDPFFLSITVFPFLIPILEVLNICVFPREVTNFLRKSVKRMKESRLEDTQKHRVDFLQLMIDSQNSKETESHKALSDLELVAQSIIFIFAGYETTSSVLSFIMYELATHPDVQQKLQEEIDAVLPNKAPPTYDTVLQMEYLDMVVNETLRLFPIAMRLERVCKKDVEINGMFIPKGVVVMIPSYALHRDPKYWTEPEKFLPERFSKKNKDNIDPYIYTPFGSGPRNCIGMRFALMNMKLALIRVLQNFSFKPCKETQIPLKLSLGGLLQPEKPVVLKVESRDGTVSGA

Key:
A549 [1] = test: A549 lung ot xenograft; type: in vivo, mice; settings: 200 mg/kg/sd × 6 week, ip
AGS = AGS gastric sc xenograft; type: in vivo, mice; settings: 200 mg/kg/d × 3 week, ip
[2] = test system: platelets (human platelet-rich plasma); test: Thromboelastography, maximum signal amplitude (MA); type: cell-based; settings: n=2
[3] = Hot-plate test, analgesic effect; type: in vivo, Lewis rats; settings: Dose 120 mg/kg ip, 30 minutes prior to testing
A549 [4] = test: A549 lung sc xenograft; settings: 200 mg/kg/d × 24 d, ip
HCT116 = HCT116 colon xenograft; settings: 250 mg/kg/d × 12 d, ip
[5] = Metabolism in liver microsomes
[6] = Tail-bleed assay, bleeding time
[7] = Maximum tolerated doses and safety of amide compounds; settings: nude mouse
CYP 1A2 = CYP 1A2 (Homo sapiens, UniProt P05177); test: In vitro metabolism by recombinant human CYP isoform 1A2; settings: 37° C., NADPH-regenerating solution
CYP 2C9 = CYP 2C9 (Homo sapiens, UniProt P11712); test: In vitro metabolism by recombinant human CYP isoform 2C9; settings: 37° C., NADPH-regenerating solution
CYP 3A4 = CYP 3A4 (Homo sapiens, UniProt P08684); test: In vitro metabolism by recombinant human CYP isoform 3A4; settings: 37° C., NADPH-regenerating solution
[8] = Pharmacokinetics of phosphosulindac amide, single oral dose; settings: single oral dose 100 mg/kg PSA

Question: Which Reduction (A549 [1]) does the source give for `CCOP(=O)(OCC)OCCCCNC(=O)CC1=C(C)/C(=C/c2ccc([S+](C)[O-])cc2)c2ccc(F)cc21` (stereo not drawn) here?
Answer: 77%

Question: What about the Reduction (AGS) of the same molecule?
Answer: 67%

Question: And the “effect on clots from platelet poor plasma (PPP) or purified fibrinogen” value [2]?
Answer: no effect

Question: And the “Latency, sec Mean ± SEM” value [3]?
Answer: 22.05 ± 0.55 s

Question: And the Reduction (A549 [4])?
Answer: 88%

Question: What about the Reduction (HCT116) of the same molecule?
Answer: 23%

Question: What about the “oxidation by liver microsomes” value [5] of the same molecule?
Answer: oxidized to 3-OH-PSA and 5-OH-PSA

Question: What about the Bleeding time ([6]; 150 mg/kg orally, 1 hour after administration) of the same molecule?
Answer: 91 ± 6 s

Question: What about the “prolongation of the bleeding time” value ([6]; treated mice) of the same molecule?
Answer: no prolongation of the bleeding time

Question: And the “maximum tolerated dose (MTD)” value ([7]; ip, 3 week)?
Answer: 250 mg/kg/day

Question: What about the “maximum tolerated dose (MTD)” value ([7]; ip, 6 week) of the same molecule?
Answer: 200 mg/kg/day

Question: What about the “maximum tolerated dose (MTD)” value ([7]; wt, po, 1 week) of the same molecule?
Answer: >500 mg/kg/day

Question: What about the “oxidation by CYP 1A2” value (CYP 1A2) of the same molecule?
Answer: minimally active

Question: And the “oxidation by CYP 2C9” value (CYP 2C9)?
Answer: minimally active

Question: And the “oxidation by CYP 3A4” value (CYP 3A4)?
Answer: minimally active

Question: And the AUC0-24h [8]?
Answer: 54.04 µM·h

Question: What about the Cmax [8] of the same molecule?
Answer: 24 µM

Question: What about the Tmax [8] of the same molecule?
Answer: 15 min
